# Laboratory results taken from PubChem BioAssay (EPA / NIEHS).
# By UniProt entry, the sequences of proteins in these tests, tags left out. Where a name states a change or a piece, a line headed by the entry shows the natural chain unless it says otherwise.
# UniProt P49884, whole entry, looked up: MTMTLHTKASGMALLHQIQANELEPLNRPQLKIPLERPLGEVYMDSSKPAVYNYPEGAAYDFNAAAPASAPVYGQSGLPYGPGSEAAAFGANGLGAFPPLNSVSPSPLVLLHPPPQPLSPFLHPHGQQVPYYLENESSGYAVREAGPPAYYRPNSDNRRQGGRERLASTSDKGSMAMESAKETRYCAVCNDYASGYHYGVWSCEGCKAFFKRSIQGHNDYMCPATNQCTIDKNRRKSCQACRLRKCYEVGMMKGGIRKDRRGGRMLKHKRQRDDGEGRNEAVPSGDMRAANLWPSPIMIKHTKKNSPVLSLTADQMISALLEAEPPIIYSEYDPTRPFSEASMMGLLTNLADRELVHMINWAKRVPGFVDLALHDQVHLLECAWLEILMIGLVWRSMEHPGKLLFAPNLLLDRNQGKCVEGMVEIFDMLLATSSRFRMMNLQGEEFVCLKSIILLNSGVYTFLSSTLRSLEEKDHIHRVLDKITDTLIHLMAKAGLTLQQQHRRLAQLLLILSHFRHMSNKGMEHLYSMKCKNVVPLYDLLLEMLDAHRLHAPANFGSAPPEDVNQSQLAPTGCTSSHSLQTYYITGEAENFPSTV
# UniProt O97775: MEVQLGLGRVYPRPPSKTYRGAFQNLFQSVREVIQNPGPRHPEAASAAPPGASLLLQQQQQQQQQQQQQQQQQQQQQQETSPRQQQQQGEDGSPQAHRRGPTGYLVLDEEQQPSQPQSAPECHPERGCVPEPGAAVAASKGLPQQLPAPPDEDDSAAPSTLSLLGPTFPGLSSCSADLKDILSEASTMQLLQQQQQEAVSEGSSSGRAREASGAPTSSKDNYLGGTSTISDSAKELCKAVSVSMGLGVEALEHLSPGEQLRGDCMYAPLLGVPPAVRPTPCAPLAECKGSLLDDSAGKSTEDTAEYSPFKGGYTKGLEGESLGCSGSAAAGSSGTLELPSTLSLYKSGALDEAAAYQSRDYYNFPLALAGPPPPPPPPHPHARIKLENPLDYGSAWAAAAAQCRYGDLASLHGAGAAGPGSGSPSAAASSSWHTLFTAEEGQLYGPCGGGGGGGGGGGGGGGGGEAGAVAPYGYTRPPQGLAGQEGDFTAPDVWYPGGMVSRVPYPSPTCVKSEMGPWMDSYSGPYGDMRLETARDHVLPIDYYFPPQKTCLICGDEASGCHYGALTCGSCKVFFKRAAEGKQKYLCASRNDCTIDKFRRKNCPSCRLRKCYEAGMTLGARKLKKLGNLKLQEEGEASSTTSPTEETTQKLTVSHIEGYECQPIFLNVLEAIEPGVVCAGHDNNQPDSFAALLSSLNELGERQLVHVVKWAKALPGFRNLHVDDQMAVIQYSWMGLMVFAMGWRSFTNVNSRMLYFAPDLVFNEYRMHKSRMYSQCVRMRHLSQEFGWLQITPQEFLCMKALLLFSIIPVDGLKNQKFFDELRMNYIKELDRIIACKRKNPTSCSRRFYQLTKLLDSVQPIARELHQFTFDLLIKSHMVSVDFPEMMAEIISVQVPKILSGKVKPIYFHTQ
# UniProt P03372, whole entry, looked up: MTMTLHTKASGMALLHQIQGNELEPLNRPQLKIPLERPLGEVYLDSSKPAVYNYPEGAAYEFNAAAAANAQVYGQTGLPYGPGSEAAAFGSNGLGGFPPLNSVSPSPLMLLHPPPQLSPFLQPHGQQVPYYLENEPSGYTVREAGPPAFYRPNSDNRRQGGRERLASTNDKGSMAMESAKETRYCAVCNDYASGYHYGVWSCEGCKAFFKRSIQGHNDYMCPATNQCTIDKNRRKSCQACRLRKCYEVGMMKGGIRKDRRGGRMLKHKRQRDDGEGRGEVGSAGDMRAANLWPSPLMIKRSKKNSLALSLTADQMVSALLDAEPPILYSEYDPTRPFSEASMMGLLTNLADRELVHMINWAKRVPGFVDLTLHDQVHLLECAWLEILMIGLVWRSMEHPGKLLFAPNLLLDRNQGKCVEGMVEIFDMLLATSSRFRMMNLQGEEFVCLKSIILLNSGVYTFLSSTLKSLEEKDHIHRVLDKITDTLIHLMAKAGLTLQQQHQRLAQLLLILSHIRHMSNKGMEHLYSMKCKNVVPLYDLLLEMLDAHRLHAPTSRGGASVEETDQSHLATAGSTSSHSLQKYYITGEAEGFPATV
# UniProt P16257, whole entry, looked up: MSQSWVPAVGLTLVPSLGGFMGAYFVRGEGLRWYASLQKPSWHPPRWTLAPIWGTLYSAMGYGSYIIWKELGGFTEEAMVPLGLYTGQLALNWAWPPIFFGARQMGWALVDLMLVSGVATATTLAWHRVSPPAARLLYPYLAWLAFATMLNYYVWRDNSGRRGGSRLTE
# UniProt P70536: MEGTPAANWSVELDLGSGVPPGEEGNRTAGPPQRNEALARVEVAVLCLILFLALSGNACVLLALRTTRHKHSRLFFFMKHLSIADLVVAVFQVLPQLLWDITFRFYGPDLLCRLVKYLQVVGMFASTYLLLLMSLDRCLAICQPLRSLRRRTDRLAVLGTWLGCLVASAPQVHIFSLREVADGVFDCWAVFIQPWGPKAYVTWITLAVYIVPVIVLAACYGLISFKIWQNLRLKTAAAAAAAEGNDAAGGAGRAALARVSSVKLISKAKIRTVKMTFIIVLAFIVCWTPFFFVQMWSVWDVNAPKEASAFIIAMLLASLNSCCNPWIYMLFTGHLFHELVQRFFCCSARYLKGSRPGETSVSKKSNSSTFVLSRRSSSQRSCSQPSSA
# UniProt P30536, whole entry, looked up: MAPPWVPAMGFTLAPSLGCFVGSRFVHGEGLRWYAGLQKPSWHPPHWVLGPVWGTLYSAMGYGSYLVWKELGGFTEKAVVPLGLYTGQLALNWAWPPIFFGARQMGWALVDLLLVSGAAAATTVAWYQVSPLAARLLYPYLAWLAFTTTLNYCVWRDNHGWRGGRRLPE
# UniProt P30191, whole entry, looked up: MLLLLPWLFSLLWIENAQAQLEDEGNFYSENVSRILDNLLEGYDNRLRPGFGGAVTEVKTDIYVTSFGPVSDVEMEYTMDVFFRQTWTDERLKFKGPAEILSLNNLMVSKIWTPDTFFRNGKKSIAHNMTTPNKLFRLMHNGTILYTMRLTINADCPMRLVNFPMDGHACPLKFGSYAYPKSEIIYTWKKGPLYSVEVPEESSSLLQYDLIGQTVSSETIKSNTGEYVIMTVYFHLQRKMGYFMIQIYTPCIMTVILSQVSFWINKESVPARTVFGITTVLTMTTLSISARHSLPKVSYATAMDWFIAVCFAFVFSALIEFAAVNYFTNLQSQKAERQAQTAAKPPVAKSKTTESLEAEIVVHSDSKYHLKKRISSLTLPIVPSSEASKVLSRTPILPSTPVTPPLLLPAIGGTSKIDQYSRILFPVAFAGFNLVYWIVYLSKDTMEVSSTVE
# UniProt Q14994: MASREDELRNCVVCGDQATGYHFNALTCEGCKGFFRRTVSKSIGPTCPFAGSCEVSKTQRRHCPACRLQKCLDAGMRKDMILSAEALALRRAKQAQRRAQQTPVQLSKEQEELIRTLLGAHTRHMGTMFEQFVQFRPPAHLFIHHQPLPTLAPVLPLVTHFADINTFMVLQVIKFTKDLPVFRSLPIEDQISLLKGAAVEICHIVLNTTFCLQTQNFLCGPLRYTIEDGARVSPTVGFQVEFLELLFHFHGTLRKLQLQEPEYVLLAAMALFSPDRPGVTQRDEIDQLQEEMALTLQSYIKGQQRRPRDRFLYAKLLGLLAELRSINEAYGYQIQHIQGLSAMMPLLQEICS
# Values joined by “and” are separate entries in the source; they are usually repeats but may differ in a detail not shown here. Equal values may be shown once. The entries are a selection whose mix differs from that of the whole data set. Inconclusive results are not listed. Active and inactive are the calls of the source. Rule for the calls: active = hit-call score of the fitted dose curve at least 0.9, where 1 is the maximum; inconclusive = response in the unintended direction; inactive = score below 0.9.
# How the values were obtained:
# [1] = target: bovine Estrogen Receptor (ER), ESR1 (gene 407238) (UniProt P49884); assay: NVS_NR_bER: NovaScreen (NVS) Nuclear Receptor Binding Assay for bovine Estrogen Receptor (ER) (AID 2283345);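 note: actives lower the bound radioligand count which means they displace the ER ligand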
# Method in brief: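 Bovine uterine membranes; tritiated or iodinated radioligand; competitive displacement; 18 h; scintillation read; DMSO negative control; 25 uM duplicates, then concentration series for actives.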
# [2] = target: chimpanzee Androgen Receptor (AR), AR (gene 747460) (UniProt O97775); assay: NVS_NR_cAR: NovaScreen (NVS) Nuclear Receptor Binding Assay for chimpanzee Androgen Receptor (AR) (AID 2283346);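 note: radioligand displacement from AR measured by scintillation counting in a cell-free assay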
# Method in brief: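 Cell-free radioligand displacement using receptor protein extracted from Sf9/Sf21 cells; bound radioligand measured by scintillation counting 72 hours after chemical dosing. Loss of signal versus DMSO baseline indicates binding; primary screen single-concentration in duplicate at 25 uM, actives followed in concentration series.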
# [3] = target: Estrogen receptor (Homo sapiens) (UniProt P03372); assay: NVS_NR_hER: NovaScreen (NVS) Nuclear Receptor Binding Assay for human Estrogen Receptor (ER) (AID 2283348)
# Method in brief: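 Cell-free radioligand binding with protein extracted from MCF7 cells; scintillation counting 18 hours after dosing. Loss of signal versus DMSO baseline read as displacement; primary single-concentration screen at 25 uM in duplicate, actives retested in concentration series.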
# [4] = target: Estrogen receptor (Homo sapiens) (UniProt P03372); assay: OT_ER_ERaERa_1440: Odyssey Thera (OT) 24-hour HEK293T Protein-Complementation Assay for Estrogen Receptor-alpha/-alpha Homodimer (AID 2283349);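 note: hits raise fluorescence above DMSO for agonists and antagonists alike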
# Description: OT_ER_ERaERa_1440 is a cell-based assay that uses HEK293T, a human kidney cell line, with measurements taken at 24 hours after chemical dosing in a 384-well plate.OT_ER_ERaERa_1440 is one of one assay component(s) measured or calculated from the OT_ER_ERaERa_1440 assay. It is designed to make measurements of protein fragment complementation, a form of binding reporter, as detected with fluorescence intensity signals by Protein-fragment Complementation technology.Data from the assay component OT_ER_ERaERa_1440 was analyzed into 1 assay endpoint. This assay endpoint, OT_ER_ERaERa_1440, was analyzed in the positive analysis fitting direction relative to DMSO as the negative control and baseline of activity. Using a type of binding reporter, measures of receptor for gain-of-signal activity can be used to understand the binding at the pathway-level as they relate to the gene ESR1. Furthermore, this assay endpoint can be referred to as a primary readout, because the performed assay has only produced 1 assay endpoint. To generalize the intended target to other relatable targets, this assay endpoint is annotated to the nuclear receptor intended target family, where the subfamily is steroidal.
# Protein-fragment complementation assay, or PCA, is a method for the identification and quantification of protein-protein interactions. In the PCA, the proteins of interest ("bait" and "prey") are each covalently linked to fragments of a third protein (e.g. DHFR, which acts as a "reporter"). Interaction between the bait and the prey proteins brings the fragments of the reporter protein in close proximity to allow them to form a functional reporter protein whose activity can be measured. The OT ER alpha / ER alpha assay is a homodimer PCA of the ligand binding domain (amino acids 310-547) of human ER alpha stably expressed in HEK293T cells. […] Fluorescent signal in the basal state of the assay is very low and is primarily punctuate and cytoplasmic. Modulation of this assay is quantified as an increase in mean fluorescence intensity in the nucleus (for agonists) or in the nucleus and cytoplasm (antagonists) relative to vehicle controls, and can be quantified on a high content imaging device or a laser scanning cytometer. The latter instrument is favored for this assay because of the rapid mode of data acquisition, the ability to acquire data from the entire cell population in a well (as opposed to a fraction of the well on the high content devices) and the larger dynamic range typically achieved with this instrument. To assess sensitivity of the ER alpha/ER alpha LBD assay to ligand, cells were treated with the ER agonist 17 beta-estradiol (E2) in 10-point concentration- response format for 24 hours and monitored response on a laser scanning plate cytometer (Acumen eX3; TTP Lab Tech).
# [5] = target: rat Peripheral-type Benzodiazepine Receptor (PBR), Tspo (gene 24230) (UniProt P16257); assay: NVS_MP_rPBR: NovaScreen (NVS) Membrane Protein Assay for rat Peripheral-type Benzodiazepine Receptor (PBR) (AID 2283335)
# Description: (§1) NVS_MP_rPBR is a biochemical, single-readout assay that uses extracted gene-proteins from Rat kidney membranes in a tissue-based cell-free assay. Measurements were taken 1 hour after chemical dosing in a 48-well plate.NVS_MP_rPBR is one of one assay component(s) measured or calculated from the NVS_MP_rPBR assay. It is designed to make measurements of radioligand binding, a form of binding reporter, as detected with scintillation counting signals by Filter-based radiodetection technology.Data from the assay component NVS_MP_rPBR was analyzed into 1 assay endpoint. This assay endpoint, NVS_MP_rPBR, was analyzed in the positive analysis fitting direction relative to DMSO as the negative control and baseline of activity. Using a type of binding reporter, loss-of-signal activity can be used to understand changes in the binding as they relate to the gene Tspo. Furthermore, this assay endpoint can be referred to as a primary readout, because the performed assay has only produced 1 assay endpoint. To generalize the intended target to other relatable targets, this assay endpoint is annotated to the transporter intended target family, where the subfamily is cholesterol transporter.
# Binding assays used specific radioligands (tritiated, iodinated) with non-radioactive competitive displacement ligands in agonist or antagonist protocols (as indicated) and various reference compounds and inhibitors to titrate specific binding to receptors and transporters. Most enzyme assays (CYPs, kinases, phosphatases, proteases, HDACs) used recombinant protein and specific substrates (fluorescence mostly, some colorimetric and radioactive) and inhibitors, followed by a biochemical separation of substrate and product. All assays for the biochemical HTS were initially run in duplicate at a single concentration (10 uM for CYP450 assays and 25 uM for all others). […] Each assay was run with positive and negative controls, and concurrent controls on every plate. […]
# [6] = target: rat Oxytocin Receptor (OXT), Oxtr (gene 25342) (UniProt P70536); assay: NVS_GPCR_rOXT: NovaScreen (NVS) G Protein-Coupled Receptor Assay for rat Oxytocin Receptor (OXT) (AID 2283330)
# Description: as §1, with “NVS_GPCR_rOXT” for “NVS_MP_rPBR”, “uterine” for “kidney”, “plate.NVS_GPCR_rOXT” for “plate.NVS_MP_rPBR”, “NVS_GPCR_rOXT,” for “NVS_MP_rPBR,”, “Using a type of binding reporter, loss-of-signal activity can be used to understand changes in the binding as they relate to the gene Tspo.” left out, “To generalize the intended target to other relatable targets, this assay endpoint is annotated to the transporter intended target family, where the subfamily is cholesterol transporter.” left out
# Binding assays used specific radioligands (tritiated, iodinated) with non-radioactive competitive displacement ligands in agonist or antagonist protocols (as indicated) and various reference compounds and inhibitors to titrate specific binding to receptors and transporters. Most enzyme assays (CYPs, kinases, phosphatases, proteases, HDACs) used recombinant protein and specific substrates (fluorescence mostly, some colorimetric and radioactive) and inhibitors, followed by a biochemical separation of substrate and product. […]
# [7] = target: human Peripheral-type Benzodiazepine Receptor (PBR), TSPO (gene 706) (UniProt P30536); assay: NVS_MP_hPBR: NovaScreen (NVS) Membrane Protein Assay for human Peripheral-type Benzodiazepine Receptor (PBR) (AID 2283331);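 note: hits reduce radioligand binding relative to DMSO baseline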
# Method in brief: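 Human colonic cell membranes were incubated with test chemical for 1 hour; radioligand binding was measured by filter-based scintillation counting. Primary screen ran in duplicate at 25 uM, with actives followed in concentration series; loss of signal versus DMSO baseline.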
# [8] = target: rat Gamma-Aminobutyric Acid Type A Receptor BDZ, alpha 6 site (GABARa6), Gabra6 (gene 29708) (UniProt P30191); assay: NVS_LGIC_rGABARa6: NovaScreen (NVS) Ligand-Gated Ion Channel Assay for rat Gamma-Aminobutyric Acid Type A Receptor BDZ, alpha 6 site (GABARa6) (AID 2283339)
# Method in brief: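 Rat cerebellar membranes; radioligand binding, filtration and scintillation counting, read 1 h after dosing. Single-concentration duplicate screen at 25 uM, then concentration-response up to 50 uM for actives; loss of signal fitted versus DMSO baseline.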
# [9] = tested on: NCBI gene 100848466; assay: NVS_NR_bPR: NovaScreen (NVS) Nuclear Receptor Binding Assay for bovine Progextron Receptor (PR) (AID 2283343);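 note: actives lower bound radioligand signal below DMSO meaning displacement of the label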
# Method in brief: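 Bovine uterine membrane preparation, cell-free; radioligand competitive displacement measured by scintillation counting 18 hours after dosing. Loss of signal versus DMSO baseline indicates binding; primary HTS single concentration 25 uM in duplicate, actives followed in concentration series.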
# [10] = target: human Constitutive Androstane Receptor (CAR), NR1I3 (gene 9970) (UniProt Q14994); assay: NVS_NR_hCAR_Antagonist: NovaScreen (NVS) Nuclear Receptor Binding Assay for human Constitutive Androstane Receptor Antagonism (CAR) (AID 2283344)
# Method in brief: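 Cell-free TR-FRET binding read 1 h after dosing, antagonist mode; loss of signal versus DMSO baseline. Primary screen in duplicate at a single 25 uM; actives retested in concentration series.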
smiles,measurement,setting,value
ClP(Cl)c1ccccc1,outcome,[1],inactive
same,outcome,[2],inactive
same,outcome,[3],inactive
same,outcome,[4],inactive
CCCCO[P+](=O)OCCCC,outcome,[5],inactive
O=[P+](Oc1ccccc1)Oc1ccccc1,AC50,[1],active: 25 µM
same,outcome,[4],inactive
CC(C)CCCCCCCOP(OCCCCCCCC(C)C)Oc1ccccc1,outcome,[4],inactive
CN(C(=O)Cc1cccc2occc12)[C@H]1CC[C@@]2(CCCO2)C[C@@H]1N1CCCC1,outcome,[4],inactive
CC(C)OP(=S)(OC(C)C)SCCNS(=O)(=O)c1ccccc1,outcome,[6],inactive
same,AC50,[7],active: 1.78 µM and active: 1.15 µM and active: 2.21 µM
same,AC50,[5],active: 1.11 µM and active: 1.44 µM and active: 916 nM
same,outcome,[8],inactive
same,AC50,[9],active: 2.25 µM and active: 2.17 µM and active: 2.04 µM
same,AC50,[10],active: 3.19 µM and active: 3.47 µM and active: 4.12 µM
CCCCOP(OCCCC)OCCCC,AC50,[7],active: 6.62 µM
same,AC50,[5],active: 1.76 µM
